Measured values published in ChEMBL document CHEMBL6134772, “Inhibition of monoamine oxidases by heterocyclic derived conjugated dienones: synthesis and in vitro and in silico investigations” (RSC Med Chem, 2025).

Amino acid sequences for entries named in this document (tags omitted).
UniProt P27338, whole entry: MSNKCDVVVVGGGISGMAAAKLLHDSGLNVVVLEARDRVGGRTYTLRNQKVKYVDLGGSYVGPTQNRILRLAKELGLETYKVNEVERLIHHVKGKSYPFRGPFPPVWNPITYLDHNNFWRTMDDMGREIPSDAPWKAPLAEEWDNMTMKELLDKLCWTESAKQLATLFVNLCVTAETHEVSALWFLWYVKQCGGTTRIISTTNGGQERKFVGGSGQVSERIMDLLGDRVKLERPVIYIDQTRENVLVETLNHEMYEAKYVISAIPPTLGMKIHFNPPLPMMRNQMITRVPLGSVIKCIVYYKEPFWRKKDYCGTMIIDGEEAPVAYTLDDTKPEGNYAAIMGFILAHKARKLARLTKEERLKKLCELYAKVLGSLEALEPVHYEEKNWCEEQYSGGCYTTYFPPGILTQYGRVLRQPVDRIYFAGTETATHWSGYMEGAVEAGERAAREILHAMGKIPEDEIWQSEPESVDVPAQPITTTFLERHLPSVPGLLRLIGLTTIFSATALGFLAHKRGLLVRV

What was measured:
[1] = biological target: T1, Amine oxidase [flavin-containing] B (Homo sapiens, UniProt P27338); assay: Inhibition of recombinant human MAO-B expressed in baculovirus infected BTI insect cells assessed as residual activity at 2 times IC50 using benzylamine as substrate measured after 30 mins relative to control; conditions: 0.5 h
[2] = biological target: T1, Amine oxidase [flavin-containing] B; assay: Irreversible inhibition of recombinant human MAO-B expressed in baculovirus infected BTI insect cells assessed as recovery of enzyme activity by measuring residual activity at 2 times IC50 using benzylamine as substrate incubated for 30 mins prior to 6 hrs of dialysis at 3 hrs interval relative to control; conditions: 6.5 h

C#CCN(C)Cc1ccccc1 [PARGYLINE]
Activity [1]: 25.93%
Activity [2]: 27.96%
